Assay results from patent publication US9896445B2, “Heterocyclic inhibitors of ERK1 and ERK2 and their use in the treatment of cancer” (Asana Biosciences, LLC, priority 2015, dated 2018).

The chains behind the UniProt entries cited, without tags or fusion partners.
UniProt P28482, whole entry: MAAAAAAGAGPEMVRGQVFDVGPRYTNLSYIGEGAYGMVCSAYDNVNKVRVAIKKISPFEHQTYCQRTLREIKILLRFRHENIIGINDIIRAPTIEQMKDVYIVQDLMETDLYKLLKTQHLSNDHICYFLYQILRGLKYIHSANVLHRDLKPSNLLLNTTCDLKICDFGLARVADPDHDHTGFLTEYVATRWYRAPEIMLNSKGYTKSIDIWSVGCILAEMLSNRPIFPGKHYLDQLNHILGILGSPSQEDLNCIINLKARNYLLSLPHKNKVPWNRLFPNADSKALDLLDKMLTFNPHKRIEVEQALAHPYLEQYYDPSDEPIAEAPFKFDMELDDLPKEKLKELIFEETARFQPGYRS
UniProt P27361, whole entry: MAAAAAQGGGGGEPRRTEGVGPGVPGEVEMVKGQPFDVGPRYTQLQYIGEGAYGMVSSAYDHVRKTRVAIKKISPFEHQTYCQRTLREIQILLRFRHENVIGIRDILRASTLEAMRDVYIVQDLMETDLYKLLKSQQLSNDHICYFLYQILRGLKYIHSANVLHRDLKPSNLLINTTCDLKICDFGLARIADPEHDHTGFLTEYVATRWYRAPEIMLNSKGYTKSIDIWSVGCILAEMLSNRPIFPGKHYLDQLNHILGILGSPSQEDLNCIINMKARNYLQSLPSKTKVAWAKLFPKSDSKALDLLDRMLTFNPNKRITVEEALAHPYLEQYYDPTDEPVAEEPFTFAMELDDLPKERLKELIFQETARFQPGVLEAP

Key:
[1] = target: ERK2 (Homo sapiens, UniProt P28482); test: ERK2 HTRF (biochemical) assay; details: read-out: Biochemical Assay ERK2 IC50
[2] = target: ERK1 (Homo sapiens, UniProt P27361); test: ERK1 HTRF (biochemical) assay; details: read-out: Biochemical Assay ERK1 IC50

IC50 [1]: 100 to 500 nM
IC50 [2]: 500 to 2500 nM
SMILES: Cc1cnc(Nc2ccc(Oc3ccccc3)cc2)nc1-n1cnc(C(=O)NC(CO)c2cccc(Cl)c2)c1 (centres unmarked)
